## scFv variants of Ab-14 (light chain) against a SARS-CoV-2 spike peptide

Reference: Li et al. 2023, doi:10.1038/s41467-023-39022-2. File: FLAb, binding data.

The target is the same throughout: PDVDLGDISGINAS, from the HR2 region of SARS-CoV-2 spike.

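These sequences belong to a second round, designed from the earlier measurements on random variants of the parent. Several design methods are mixed in this list. Affinity was read by AlphaSeq, a pooled yeast mating assay with surface-displayed partners. Pairs that bind mate more often; barcode pairs of the diploids are counted by sequencing. A regression on co-assayed BCL2-family reference pairs converts the normalised counts of each replicate to an apparent Kd. Mating was done six times.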

Ab-14 is the parent antibody, in scFv form: VH, then a (GGGGS)3 linker, then VL. The heavy chain is unchanged in all variants.
VH: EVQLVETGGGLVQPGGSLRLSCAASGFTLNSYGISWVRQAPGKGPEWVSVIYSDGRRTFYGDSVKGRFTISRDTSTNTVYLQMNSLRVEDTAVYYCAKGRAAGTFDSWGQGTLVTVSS
VL: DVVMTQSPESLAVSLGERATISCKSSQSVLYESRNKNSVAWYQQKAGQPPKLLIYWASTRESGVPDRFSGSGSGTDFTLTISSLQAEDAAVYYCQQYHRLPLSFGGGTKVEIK

Variants are written as CDR1, CDR2 and CDR3 of the light chain (limits as in the source). Parent: KSSQSVLYESRNKNSVA, WASTRES, QQYHRLPLS.
Values are log10 of the apparent Kd in nM; lower means stronger binding.
Averages over replicates are reported, and they cover detected replicates only.
"nd" means that the variant was in the library but no mating with the target was seen in any replicate; the authors take this as a sign of poor binding, and no number exists.
Order: sorted from the lowest average up, undetected variants last.

CDR-L1 | CDR-L2 | CDR-L3 | mean log10 Kd (nM) | replicates with signal
KLSQSWLYESRNKNSVA | NASTRED | QQYHRLPLS | -0.53 | 6 of 6
KVQASQLYWSRNKNSVA | NASTRET | QQYHRLPLS | -0.47 | 6 of 6
KVSQSVLYESRNKNAVA | QASTRES | QQYHRLPLS | -0.44 | 6 of 6
KLSQSVLYESRMKNSVA | NASQRES | QQYHRLPLS | -0.42 | 6 of 6
KLSQSMLYEERNLNSVA | HASQRMS | QQYHRLPLS | -0.42 | 6 of 6
KLPQSELYESRNKNSVA | NASKRES | QQYHRLPLS | -0.36 | 6 of 6
KLSQSYLYESRNKNSVA | NASTRLS | QQYHRLPLS | -0.36 | 6 of 6
KLSQSELYESRNKNNVA | EASQRES | QQYHRLPLS | -0.36 | 6 of 6
KLEQSVLYEQRNKNSVA | NASTRES | QQYHRLPLS | -0.29 | 6 of 6
KLSQSEGYESRNKNSVA | EASQRES | QQYHRLPLS | -0.25 | 6 of 6
KSSQSVLMESRNPNSVA | DASTRES | QQYHRLPLS | -0.23 | 6 of 6
KVSGSELYESRNKNSVA | NASTRES | QQYHRLPLS | -0.21 | 6 of 6
KSPQGVLYESRNKNSVA | GASVRES | QQYHRLPLS | -0.17 | 6 of 6
KLPQSVLYESRNKNSVA | NGSTRES | QQYHRLPLS | -0.15 | 6 of 6
KLEPFEEEESRNKNSVA | SASTRES | QQYHRLPLS | -0.09 | 6 of 6
KLSQSVGYESRNKNSVA | EASTRED | QQYHRLPLS | -0.07 | 6 of 6
KLDQDDLYESRNCNNVA | QASTREQ | QQYHRLPLS | -0.06 | 6 of 6
KLPQSDLYWQRNSNSVA | NASTRFS | QQYHRLPLS | -0.03 | 6 of 6
HLSDSVLYESRNKNSVA | NASTRES | QQYHRLPLV | -0.03 | 6 of 6
KSEQSVPYESRNKNSVA | EASTRES | QQYHRLPLS | 0.00 | 6 of 6
KLMQSQLYESRNKNSVA | NASTRMS | QQYHRLPLS | 0.01 | 6 of 6
KFSQSFLYESRWKNSVA | GASQRES | QQYHRLPLS | 0.01 | 6 of 6
KVLQSVPYEGRNKNSVA | HASTRED | QQYHRLPLS | 0.04 | 6 of 6
KVQQSVLYESRNKNSVA | HASTRES | QQYHRLPLS | 0.08 | 6 of 6
KVSQSWLYESRNKNSVA | NASTRES | QSYHRLPLS | 0.08 | 6 of 6
KLSQSVLYEQRNCNSVA | NASTRES | QQYHRLPLS | 0.08 | 6 of 6
KGSQSQLYESSNKNSVA | GASTRES | QQYHRLPLS | 0.18 | 5 of 6
KSSQSVLDESRNKNSVA | SASTREQ | QQYHRLPLS | 0.20 | 6 of 6
KLSQSDLYQSRNKNSVA | NASTRES | QQYHRLPLS | 0.24 | 6 of 6
KLSMTTEMEHVNRNSVA | ELVTRMK | QQYNRLPLS | 0.31 | 6 of 6
KIGMTLNQLLHQKNNVA | DLVEREN | QQYHRLPLS | 0.34 | 6 of 6
MVNGIMDHLSKHTNNVA | ETTTREE | QQYDRLPLV | 0.34 | 6 of 6
KISQSVLMESRNKNSVA | WASTRES | QQYHRLPLS | 0.34 | 6 of 6
KVSMQVWYSSRNKNSVA | DANTRES | QQYHRLPLS | 0.37 | 6 of 6
KLSQSWGYESRNKNSVA | HASQRES | QQYHRLPLS | 0.40 | 6 of 6
KLSQSVDYESRNKNSVA | DASTREQ | QQYHRLPLS | 0.46 | 6 of 6
KSSPSVLFESRNKNSVA | NASTRES | QQYHRLPLS | 0.50 | 6 of 6
KLSQSDLYESRNKNSVA | EASTREK | QQYHRLPLS | 0.51 | 6 of 6
KVSWLHPYWSRNKNSVA | EASTREQ | QQYHRLPLS | 0.52 | 6 of 6
KLQMSWLMQSRMKNQVA | HASMRES | QQYHRLPLS | 0.53 | 6 of 6
KLRQSMLYESRNKNSVA | NASTRES | QQYHRLPLS | 0.54 | 6 of 6
KLSPSVMYESRMKNSVA | MASTRYM | QQYHRLPLS | 0.57 | 6 of 6
TIDDEEPSEGLKWNSIA | GVATRLQ | QQYARLPLI | 0.59 | 6 of 6
KISMSYRYQSQNKNSIA | EMSRREN | QQYHRLPLS | 0.66 | 6 of 6
KLSQWVEMESRWWNSVA | SASQRNE | QQYHRLPLS | 0.67 | 6 of 6
KSSVAVLYESNNANSVA | EASTRES | QQYHRLPLS | 0.78 | 6 of 6
QVSNTNMQGHAMEHNVA | EGTYAEE | QQYARLPLQ | 0.85 | 6 of 6
KLRMLTLTEGYFKNSVA | QASTREN | QSYHRLPLS | 0.91 | 6 of 6
KLYQSMLYEQRNKNSVA | NASLRES | QCYHRLPLS | 0.92 | 6 of 6
MLSEVLHMLGAKKNSIA | DLVMRAN | QQYHRLPLF | 1.01 | 6 of 6
KCAQNVLIMGRGKNNVA | EMTTREE | QQYDRLPLS | 1.06 | 6 of 6
KVQQGVWYESRNKNSVA | WASTREV | QQYHRLPLS | 1.10 | 6 of 6
MISQVMNTLTRNGNNVA | DLTEREK | QQYFRLPLS | 1.16 | 5 of 6
KLDYLNGYSDIGGDSIA | DVSTAGM | QQYIRLPLS | 1.29 | 6 of 6
HVSSMLMAGGGIYNSVA | GNKLLER | QQYMRLPLS | 1.41 | 4 of 6
KFSQSVLYESRNKNSVA | WASTREV | NQYHRLPLS | 1.50 | 1 of 6
KFSQSVTYESRNKNSVA | WASTRES | QQYHRLPLS | 1.52 | 6 of 6
IVSELFLWGLHAKNSIA | EAEMRTN | QQYDRLPLF | 1.54 | 6 of 6
QLSLMENEMDDRMWSVA | DANQAKT | QDYHRLPLM | 1.68 | 1 of 6
TIGQTLMYGMRNRSNVA | EVSQRLN | QQYDRLPLL | 1.75 | 6 of 6
KLPHLSFVHDREKNNVA | DLNVKCS | QQYDRLPLA | 1.77 | 6 of 6
HFSQSVLYESRPKNSIA | WASTRES | QQYHRLPLS | 1.79 | 6 of 6
KSMQSVLYESRNKNSVA | WASERES | CQYHRLPLS | 1.82 | 1 of 6
MITEGQLGENKNSSNIA | SQNIKTA | QQYQRLPLT | 1.88 | 2 of 6
KSSQSVLYESRLKNPVA | WASTRES | QQYHRLPLS | 1.95 | 1 of 6
DSSQSVLYDSRNKNSVA | NASTRES | QQCHRLPLS | 2.31 | 4 of 6
KSLQSVLYESRNKNSVA | WASTRES | QQYHRLPLS | 2.46 | 1 of 6
MIAYGLRGVGRNKNSVA | NAQTRES | QHYHRLPLS | 2.52 | 2 of 6
KLREVQHVESKQKNNVA | DNSTRES | QDYYRLPLS | 3.21 | 1 of 6
KSSQSKLYESRNKNSVA | GASTRES | QQYHRLPYS | 4.23 | 2 of 6
KSSQQWLYESLNKNIVA | WASTRES | QTYHRLSLS | nd | 0 of 6
KLSLFYRVETRNTNSVA | DNSTRES | QDYDRLPLS | nd | 0 of 6

The 10 strongest on average among those seen in every replicate, once more:

CDR-L1	CDR-L2	CDR-L3	mean log10 Kd (nM)	replicates with signal
KLSQSWLYESRNKNSVA	NASTRED	QQYHRLPLS	-0.53	6 of 6
KVQASQLYWSRNKNSVA	NASTRET	QQYHRLPLS	-0.47	6 of 6
KVSQSVLYESRNKNAVA	QASTRES	QQYHRLPLS	-0.44	6 of 6
KLSQSVLYESRMKNSVA	NASQRES	QQYHRLPLS	-0.42	6 of 6
KLSQSMLYEERNLNSVA	HASQRMS	QQYHRLPLS	-0.42	6 of 6
KLPQSELYESRNKNSVA	NASKRES	QQYHRLPLS	-0.36	6 of 6
KLSQSYLYESRNKNSVA	NASTRLS	QQYHRLPLS	-0.36	6 of 6
KLSQSELYESRNKNNVA	EASQRES	QQYHRLPLS	-0.36	6 of 6
KLEQSVLYEQRNKNSVA	NASTRES	QQYHRLPLS	-0.29	6 of 6
KLSQSEGYESRNKNSVA	EASQRES	QQYHRLPLS	-0.25	6 of 6

The authors averaged sequences with at least three values out of six and counted those with two or fewer as poor binders.
A sequence measured in both rounds can read differently, since the two assays cover different ranges.
Background: pairings of all light chain designs with three empty control strains gave a value in 4% of cases (median 2.64, 5th percentile 1.59). Values in that range, when seen in few replicates, are hard to tell from nonspecific mating.
The parent sequence was in this pool as ten entries: three were never detected, three once, and four in most replicates, with averages from 0.34 to 2.37.